The test system of experiment [1] is IL-13 induced STAT6 phosphorylation in BEAS-2B human lung epithelial cells. Kind of experiment: Cellular JAKI potency assay (AlphaScreen), BEAS-2B. To be noted: read-out: BEAS-2B IC50, BEAS-2B cells. (Bead proximity is the source of the signal in Alpha formats.)
In experiment [2] the test system is IL-13 induced pSTAT6 induction in lung tissue. The experiment can be described thus: Murine model of IL-13 induced pSTAT6 induction in lung tissue. To be noted: mouse lung, 1 mg/mL 50 μL oral aspiration, IL-13 challenge 4 h after dose, lungs at 5 hours.
Another experiment addresses JAK1 (Homo sapiens (Human), UniProt P23458). Kind of experiment: Biochemical JAK kinase assay (LanthaScreen), JAK1. To be noted: read-out: JAK1 Ki; converted from pIC50 with Cheng-Prusoff equation. In general terms: Time-resolved FRET reads energy transfer from a long-lived donor to a nearby acceptor.

Protein sequences, listed by entry. Tags and fused reporters are not part of them.
UniProt P23458, whole entry: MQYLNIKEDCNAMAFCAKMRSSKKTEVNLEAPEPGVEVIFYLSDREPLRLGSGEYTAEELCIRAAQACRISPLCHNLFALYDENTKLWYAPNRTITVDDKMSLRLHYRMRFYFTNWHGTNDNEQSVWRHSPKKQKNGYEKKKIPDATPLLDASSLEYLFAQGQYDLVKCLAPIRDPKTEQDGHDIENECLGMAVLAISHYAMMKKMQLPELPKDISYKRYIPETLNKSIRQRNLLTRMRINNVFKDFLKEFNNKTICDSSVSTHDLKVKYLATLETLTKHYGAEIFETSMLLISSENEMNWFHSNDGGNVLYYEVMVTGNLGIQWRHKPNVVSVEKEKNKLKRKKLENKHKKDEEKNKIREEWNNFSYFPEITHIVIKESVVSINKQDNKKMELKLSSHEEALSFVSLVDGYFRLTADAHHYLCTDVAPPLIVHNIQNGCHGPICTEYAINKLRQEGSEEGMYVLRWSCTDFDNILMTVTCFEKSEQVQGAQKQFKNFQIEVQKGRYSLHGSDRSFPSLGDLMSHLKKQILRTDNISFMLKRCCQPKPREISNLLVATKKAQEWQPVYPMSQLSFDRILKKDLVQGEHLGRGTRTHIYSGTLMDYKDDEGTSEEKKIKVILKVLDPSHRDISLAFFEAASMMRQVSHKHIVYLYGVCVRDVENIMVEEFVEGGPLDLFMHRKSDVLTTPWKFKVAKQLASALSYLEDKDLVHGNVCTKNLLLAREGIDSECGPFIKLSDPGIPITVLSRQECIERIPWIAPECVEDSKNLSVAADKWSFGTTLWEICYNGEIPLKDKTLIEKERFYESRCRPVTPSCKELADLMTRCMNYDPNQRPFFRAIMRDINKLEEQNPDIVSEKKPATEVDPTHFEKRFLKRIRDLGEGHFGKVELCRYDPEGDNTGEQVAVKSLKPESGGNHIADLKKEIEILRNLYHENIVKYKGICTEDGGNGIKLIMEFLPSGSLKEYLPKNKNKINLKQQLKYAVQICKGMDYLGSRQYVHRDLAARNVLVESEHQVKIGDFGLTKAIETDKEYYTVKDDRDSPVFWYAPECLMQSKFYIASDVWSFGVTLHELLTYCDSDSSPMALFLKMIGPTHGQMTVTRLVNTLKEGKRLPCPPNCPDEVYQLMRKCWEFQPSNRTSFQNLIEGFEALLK

Usually IC50 stands for the concentration at which inhibition is half-maximal. In general, Ki refers to a dissociation constant, usually derived from enzyme kinetics or from competition with a known ligand.

Take `CCCN1Cc2[nH]c(-c3n[nH]c4cc(-c5cc(F)c(O)cc5CC)ccc34)nc2CC1C(=O)N1CC(N(C)C)C1` (centres unmarked): the IC50 in experiment [1] is 5 nM. Besides, in experiment [2], the “pSTAT6 inhibition Assay 4” value is “B (B represents between 40% and 60% inhibition)”.
For the compound `CCCN1Cc2[nH]c(-c3n[nH]c4cc(-c5cc(F)c(O)cc5CC)ccc34)nc2C[C@@H]1C(=O)N1CC(N(C)C)C1`, the Ki on JAK1 was 0.1 nM. For the same compound, in experiment [1], the IC50 turned out to be 4 nM. Moreover, the “pSTAT6 inhibition Assay 4” value in experiment [2] was “B (B represents between 40% and 60% inhibition)”.

The values are drawn from patent publication US10196393B2, “JAK inhibitors containing a 4-membered heterocyclic amide” (THERAVANCE BIOPHARMA R&D IP, LLC, priority 2017, dated 2019).
